## Measured affinities in a library of Ab-14 heavy chain variants

From the AlphaSeq antibody data of Engelhart et al. 2022 (doi:10.1038/s41597-022-01779-4), copy in the FLAb collection.

Target peptide (SARS-CoV-2 spike, HR2 region): PDVDLGDISGINAS

Each scFv is VH, the linker GGGGSGGGGSGGGGS, VL, as in the parent Ab-14, and differs from it in the CDRs of the heavy chain only.
VH: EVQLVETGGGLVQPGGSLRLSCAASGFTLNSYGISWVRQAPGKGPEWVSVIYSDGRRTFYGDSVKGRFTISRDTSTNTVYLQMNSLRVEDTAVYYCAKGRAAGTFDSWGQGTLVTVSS
VL: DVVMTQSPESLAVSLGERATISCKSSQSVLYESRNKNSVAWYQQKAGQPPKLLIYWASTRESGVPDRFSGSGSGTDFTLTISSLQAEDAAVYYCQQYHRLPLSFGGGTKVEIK

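The library (AAYL49) carries one to three amino acid substitutions per variant, with no insertions or deletions. Affinity was read by AlphaSeq, a pooled yeast mating assay with surface-displayed partners. The frequency of each diploid, read from paired DNA barcodes, reflects how well the two displayed proteins bind. Each replicate has its own calibration line, from reference interactions of the BCL2 family. Mating was done three times.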

Each variant is given by its three heavy chain CDRs, as the data file delimits them; those of the parent are GFTLNSYGIS, VIYSDGRRTFYGDSVK, GRAAGTFDS.
Each Kd is an estimate from the mating assay, the geometric mean of the replicates in which the pair was seen; lower is stronger.
Where no diploid with the target was found in any replicate, the entry reads "not detected": below detection, most likely a poor binder, though not proof of it.
Nonspecific signal, from three strains lacking the peptide, appeared in 15% of pairings of library AAYL49, centred on 11 µM (5% of these signals below 680 nM); values are not corrected for it. Also given: how often the same scFv was detected with the empty control strains.
For reference, the parent read 4.4 nM as the reference entry and 13 µM (one replicate of three) as a member of this library.

CDR-H1,CDR-H2,CDR-H3,Kd (apparent),replicates with signal,control signals
GFTLNSYGIS,VIYSDGRRYFYGDSVK,GRAAGTHCS,not detected,0/3,0/9
GFTLNHYGES,VIYSDGRRTFYGSSVK,GRAAGTFDS,not detected,0/3,1/9
GFTLNSYGIS,VIYSDGRRTFYGMSVK,GRAAGGFVS,not detected,0/3,0/9
GFTQNSYGIS,VIYSDGRRTFYGDSVK,WRAAGTFLS,not detected,0/3,0/9
GFTLNSYGHS,VIYSDSRRTFYGHSVK,GRAAGTFDS,not detected,0/3,1/9
GFTLNSYGIS,VIEDDGYRTFYGDSVK,GRAAGTFDS,2.0 mM,1/3,2/9
GYTLNSYGIS,VIYSDGRRTFYGDAVK,GRAAGTFDS,160 nM,3/3,2/9
GFYLNSYGIS,VIYWDGRRTFYADSVK,GRAAGTFDS,3.1 µM,2/3,0/9
EFTLDSYGIS,VIYSDGRRTFYGDSAK,GRAAGTFDS,130 nM,3/3,0/9
GFTLNSYGIS,VIYSDGPRTFYGDSVK,QRCAGTFDS,not detected,0/3,2/9
GFTLNSYEIS,VIYSDGRRTFYGDSVK,GRAATGFDS,4.9 µM,1/3,1/9
WFTLNSVGIS,VIYSDGRRTFYGCSVK,GRAAGTFDS,not detected,0/3,0/9
GFTLNSYGIS,VIYSDGRRTFYGDSVK,GRAKATFWS,not detected,0/3,0/9
GFNLNSYGIF,VIYSDGRRTFYGDSVK,GRAAGTFHS,not detected,0/3,0/9
GFTLNSYGIS,SIYSDGRRTFYGDSMK,GRMAGTFDS,not detected,0/3,0/9
GQQLNSYGIS,VIYSDGRRTFYGDSVK,GRAWGTFDS,250 nM,1/3,0/9
GFTLVSYGIS,VIYSYGRRTFYGDSVK,GRWAGTFDS,not detected,0/3,0/9
GFMENSYGRS,VIYSDGRRTFYGDSVK,GRAAGTFDS,not detected,0/3,5/9
GFTLNSLGIS,VIYSDGRRTFYGDSVK,GRAAVKFDS,3.7 µM,3/3,1/9
GFTLDSYGNS,VIASDGRRTFYGDSVK,GRAAGTFDS,not detected,0/3,1/9
GFTLYSYGIS,VIYSDGRTTFYGDSVK,GRAADTFDS,69 µM,3/3,2/9
GFTSNSMGIS,VIYSDGRRTFYGDSVK,GRAAGTFDS,not detected,0/3,0/9
GNTLNSYGIS,VWYSDGRRTFYGDSVK,GMAAGTFDS,not detected,0/3,0/9
GFTLNSYGIS,VIYSDGRRTFYMDSVL,GRAAGTVDS,not detected,0/3,1/9
GFTLNSYGIS,VIYSDSRRTFYGDSVP,GRAAGTFDS,not detected,0/3,0/9
GFTLNSYDIS,VIYSDGRRTFYGPSVK,GREAGTFDS,not detected,0/3,1/9
GFTLNSYGIS,VINSDGRRTFYGDSVK,GRAAGTPDK,28 µM,2/3,4/9
GITLNSYGIS,VIYSDVRRTWYGDSVK,GRAAGTFDS,7.6 µM,2/3,1/9
GTTLNSYQIF,VIYSDGRRTFYGDSVK,GRAAGTFDS,not detected,0/3,2/9
GCTLNSYGIS,VRYSDGRRTFYGDSVF,GRAAGTFDS,not detected,0/3,2/9
GFALNKYGIM,VIYSDGRRTFYGDSVK,GRAAGTFDS,not detected,0/3,0/9
CFTLNSYWIS,VIYSDGRRTFYGDSVK,GRAAGTADS,950 nM,2/3,1/9
GFTLNSYGIS,FIPRDGRRTFYGDSVK,GRAAGTFDS,30 µM,1/3,5/9
GFTLNSYGIQ,VIYFDGRRTFYGDSVK,GRAAGVFDS,not detected,0/3,2/9
GFTLNQYGIS,VMYDDGRRTFYGDSVK,GRAAGTFDS,not detected,0/3,0/9
RFTLMSYGIS,VIYSDGRNTFYGDSVK,GRAAGTFDS,1.1 µM,3/3,0/9
MFTLNNYGIS,VIYVDGRRTFYGDSVK,GRAAGTFDS,360 nM,3/3,1/9
GFTLNSQGIS,VIYSWGRRTFYGDSVK,GRAAGTFDC,3.4 µM,2/3,4/9
GFTLNSYHIS,VIYSDCRRTFYGDSVP,GRAAGTFDS,27 µM,1/3,0/9
GFTLNSYGIS,VIYSDGNRTFYGDGVK,GRAAGTDDS,not detected,0/3,1/9
GFTLNSYGIS,VIYSDGRRTFYGDFVK,GLAAGTFDS,27 µM,2/3,1/9
GFTLNSYGIS,VIYSSGTRTFYGYSVK,GRAAGTFDS,16 µM,1/3,3/9
GFTLNSYGIS,VIYSDGRRTFYGESVK,NRAARTFDS,87 nM,3/3,2/9
GVTLNSYGIS,RIYSDGRRTFYGDSVK,HRAAGTFDS,760 nM,1/3,0/9
GFTLNSYGIS,GIYSDGRRTFYGDSVK,GDAAGTFDS,not detected,0/3,0/9
GFTLNSYGGS,VIYHDGRRYFYGDSVK,GRAAGTFDS,not detected,0/3,0/9
GKTLNSYGIS,VIYSDPRRTFYGDSVK,GEAAGTFDS,64 µM,1/3,2/9
GFILNSYGIS,VIYSDGRRVFYGDSVK,GRHAGTFDS,not detected,0/3,0/9
GRTLNSYGIS,VIYYDGRRTFYGFSVK,GRAAGTFDS,14 µM,1/3,2/9
GFTLNSYGIS,VIYSHGRRTFYGGSVK,GIAAGTFDS,not detected,0/3,3/9
GFTLNSYGIS,WIISDGRRFFYGDSVK,GRAAGTFDS,not detected,0/3,0/9
GFTFNSYGIS,VMYSDGRRTFYGDSVK,GRNAGTFDS,840 nM,3/3,2/9
GFTLNSYGIS,VIYKDGRRTFYSDSVK,GNAAGTFDS,98 µM,2/3,7/9
GFTLNSYNAS,VIYSDGTRTFYGDSVK,GRAAGTFDS,58 µM,1/3,0/9
GFTNMSYGIS,VIYSDGRRTFYGDSVS,GRAAGTFDS,5.3 µM,1/3,0/9
GFTWNSRGIS,VIYSDGRRTFYGDSVK,GRACGTFDS,not detected,0/3,1/9
GFTLNSYHIS,VIYSDGRREFYGDSVK,GGAAGTFDS,not detected,0/3,5/9
GFTLNSYGIS,VIRSDGRPTAYGDSVK,GRAAGTFDS,96 µM,2/3,4/9
GFTLNGYGIS,VCYSDGDRTFYGDSVK,GRAAGTFDS,53 µM,3/3,7/9
IFTLNSYGIS,PIQSDGRRTFYGDSVK,GRAAGTFDS,22 µM,1/3,3/9
GFTLNSYGIQ,VIYSDGRRTFLGDSLK,GRAAGTFDS,not detected,0/3,0/9
GFTLNSYGIY,VIYSDGRRTFYGDSVK,GNAAGTFDS,180 µM,1/3,2/9
GFTLNSYPIS,VIYSDGRRTFYGDSVK,GRAFGTMDS,not detected,0/3,0/9
GFTLLHYAIS,VIYSDGRRTFYGDSVK,GRAAGTFDS,3.2 µM,2/3,0/9
GFTLNSYGIS,VNYSDGRRTIYGDSDK,GRAAGTFDS,12 µM,1/3,1/9
GFTLNSYEIS,VYYSDGRRTFYGDSVD,GRAAGTFDS,8.0 µM,2/3,1/9
GFTLNSYGIS,VIYSDGRRTFYGDSQK,GRAYGTKDS,66 µM,2/3,2/9
QFGLNSYGIS,VIYSDGRRTFYADSVK,GRAAGTFDS,210 nM,3/3,1/9
GFTLNSYGIS,VMYTDGRRTFYGDSVK,GRAAGKFDS,1.9 µM,2/3,2/9
GFTMNSYGIS,VIYSDGRRTFYGDSVK,GRYAGDFDS,5.7 µM,1/3,0/9
GFTLNSKGIS,VIYQDGRRTFYGFSVK,GRAAGTFDS,7.2 µM,1/3,2/9
GFTLNSYGIS,VIYSDGRRTWLGDSVK,GRAAGVFDS,2.4 µM,1/3,2/9

Excerpt, the first 7 entries:

{"CDR-H1": "GFTLNSYGIS", "CDR-H2": "VIYSDGRRYFYGDSVK", "CDR-H3": "GRAAGTHCS", "Kd (apparent)": "not detected", "replicates with signal": "0/3", "control signals": "0/9"}
{"CDR-H1": "GFTLNHYGES", "CDR-H2": "VIYSDGRRTFYGSSVK", "CDR-H3": "GRAAGTFDS", "Kd (apparent)": "not detected", "replicates with signal": "0/3", "control signals": "1/9"}
{"CDR-H1": "GFTLNSYGIS", "CDR-H2": "VIYSDGRRTFYGMSVK", "CDR-H3": "GRAAGGFVS", "Kd (apparent)": "not detected", "replicates with signal": "0/3", "control signals": "0/9"}
{"CDR-H1": "GFTQNSYGIS", "CDR-H2": "VIYSDGRRTFYGDSVK", "CDR-H3": "WRAAGTFLS", "Kd (apparent)": "not detected", "replicates with signal": "0/3", "control signals": "0/9"}
{"CDR-H1": "GFTLNSYGHS", "CDR-H2": "VIYSDSRRTFYGHSVK", "CDR-H3": "GRAAGTFDS", "Kd (apparent)": "not detected", "replicates with signal": "0/3", "control signals": "1/9"}
{"CDR-H1": "GFTLNSYGIS", "CDR-H2": "VIEDDGYRTFYGDSVK", "CDR-H3": "GRAAGTFDS", "Kd (apparent)": "2.0 mM", "replicates with signal": "1/3", "control signals": "2/9"}
{"CDR-H1": "GYTLNSYGIS", "CDR-H2": "VIYSDGRRTFYGDAVK", "CDR-H3": "GRAAGTFDS", "Kd (apparent)": "160 nM", "replicates with signal": "3/3", "control signals": "2/9"}